This passage reports Ki results from patent US9758538B2, “Pyrimidine derivatives” (PFIZER INC., priority 2015, dated 2017).

Protein sequences, listed by entry. Tags and fused reporters are not part of them.
UniProt P42336, whole entry: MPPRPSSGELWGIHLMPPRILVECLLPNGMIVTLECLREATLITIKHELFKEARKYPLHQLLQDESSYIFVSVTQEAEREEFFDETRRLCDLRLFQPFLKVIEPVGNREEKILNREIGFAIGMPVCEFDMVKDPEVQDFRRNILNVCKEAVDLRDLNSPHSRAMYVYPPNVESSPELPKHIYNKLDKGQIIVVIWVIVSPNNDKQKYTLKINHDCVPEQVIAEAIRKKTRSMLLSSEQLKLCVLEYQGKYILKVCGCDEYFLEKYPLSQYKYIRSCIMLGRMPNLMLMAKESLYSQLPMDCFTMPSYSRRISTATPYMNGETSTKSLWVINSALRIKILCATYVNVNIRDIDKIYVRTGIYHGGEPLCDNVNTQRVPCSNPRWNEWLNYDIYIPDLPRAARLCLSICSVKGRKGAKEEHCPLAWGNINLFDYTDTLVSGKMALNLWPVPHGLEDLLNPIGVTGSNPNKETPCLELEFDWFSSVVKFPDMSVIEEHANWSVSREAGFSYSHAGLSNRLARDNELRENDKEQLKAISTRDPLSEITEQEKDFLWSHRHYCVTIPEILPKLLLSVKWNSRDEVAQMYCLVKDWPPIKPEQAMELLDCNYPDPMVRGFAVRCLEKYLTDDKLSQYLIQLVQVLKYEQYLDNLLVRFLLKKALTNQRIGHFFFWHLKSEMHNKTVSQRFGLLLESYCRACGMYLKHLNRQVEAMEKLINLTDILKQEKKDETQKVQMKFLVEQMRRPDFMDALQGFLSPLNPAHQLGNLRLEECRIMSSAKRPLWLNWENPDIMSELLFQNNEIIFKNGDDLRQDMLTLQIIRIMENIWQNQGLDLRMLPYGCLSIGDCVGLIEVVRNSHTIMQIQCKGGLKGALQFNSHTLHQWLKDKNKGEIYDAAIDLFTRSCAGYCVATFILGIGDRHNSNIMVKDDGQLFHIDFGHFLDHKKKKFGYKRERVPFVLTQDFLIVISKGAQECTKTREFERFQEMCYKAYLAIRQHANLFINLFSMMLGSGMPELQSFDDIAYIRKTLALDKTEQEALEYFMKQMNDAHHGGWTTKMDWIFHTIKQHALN

Molecules are shown by their SMILES. pKi: −log10 of the molar value. Bounds are passed on as bounds.

This test addresses truncated PI3Kα (p110α/iSH2 p85α), PI3KA_Act (Homo sapiens (Human), UniProt P42336). Kind of test: PI3Kα biochemical kinase assay, fluorescence polarization format (PI3KA_Act). Conditions: 0.5 nM p110α/iSH2 p85, 1 mM ATP, 30 μM PIP2, 15-min preincubation; Morrison equation fit. As to the method:
Enzyme Production for Biochemical Assay: p110α-iSH2 p85α Complex (Full Length p110α and p85α iSH2)(“PI3KA Act”)
Gene encoding p110α subunit was subcloned into polyhedrine promoter while gene encoding p85α niSH2 domains was subcloned into p10 promoter. […] Recombinant baculovirus was generated using Bac-to-Bac protocol (Life Technologies, Carlsbad, Calif.). Large scale expression was conducted in Sf21 (Life Technologies, Carlsbad, Calif.) cells at a multiplicity of infection (“MOI”)=1 for 48 hours. Cells were lyzed in 50 mM Tris pH 8.0, 250 mM NaCl, 5% glycerol, 0.25 mM TCEP, and 20 mM imidazole. The p110α-niSH2 p85α complex was purified from clarified supernatant using Immobilized Metalo Affinity Chromatography (“IMAC”). The protein was eluted from the column using 50 mM Tris pH 8.0, 200 mM NaCl, 0.25 mM TCEP, and 200 mM imidazole. Following elution p110α-niSH2 p85α complex was dialyzed against 4 liters of 50 mM Tris pH 8.0, 200 mM NaCl, 0.25 mM TCEP, and 40 mM imidazole in the presence of PreScission Protease (1:70 molar ratio of Protease to Protein) and TEV protease (1:40 molar ratio protease to protein) for 16 hours at 4° C. The protein was further purified using reverse IMAC to remove cleaved histidine tag and contaminants captured during initial IMAC purification. The mixture of p110α-iSH2 p85α complex and cleaved nSH2 was recovered in reverse IMAC 40 mM imidazole flow through and 60 mM imidazole wash fractions. Those fractions were pulled together and loaded on Superdex 200 26/60 SEC column equilibrated in 25 mM Tris, pH 8.0, 100 mM NaCl, 2% glycerol, and 2 mM TCEP.
The enzymatic reactions were conducted in 50 μL volumes in 96-well plates. […] The reactions were incubated for 30 min at room temperature, stopped with EDTA pH 8 (10 mM final concentration). […] The plate was shaken for 30 minutes and fluorescence polarization values were measured on an LJL Analyst HT plate reader (Molecular Devices, Sunnyvale, Calif.).
In turn, `Nc1ncc(-c2nc(N3CCOCC3)nc(N[C@@]3(CO)CCN(C(=O)C4(F)CC4)C3)c2F)cn1` [Example 1, [(3S)-3-{[2′-amino-5-fluoro-2-(morpholin-4-yl)-4,5′-bipyrimidin-6-yl]amino}-3-(hydroxymethyl)pyrrolidin-1-yl](1-fluorocyclopropyl)methanone] gave a pKi of 10.70.

The compound `CN(c1cc(-c2cnc(N)nc2)nc(N2CCOCC2)n1)[C@@]1(C)CCN(S(C)(=O)=O)C1` [Example 13, N~6~-methyl-N~6~-[(3S)-3-methyl-1-(methylsulfonyl)pyrrolidin-3-yl]-2-(morpholin-4-yl)-4,5′-bipyrimidine-2′,6-diamine] showed a pKi of 9.64. The compound `C[C@H]1COCCN1c1nc(-c2cnc(N)nc2)cc(N(C)[C@]2(C)CCN(C(=O)OC(C)(C)C)C2)n1` [Example 14, tert-butyl (3R)-3-[{2′-amino-2-[(3S)-3-methylmorpholin-4-yl]-4,5′-bipyrimidin-6-yl}(methyl)amino]-3-methylpyrrolidine-1-carboxylate] gave a pKi of 8.97. In turn, `CC(=O)N1CC[C@@](C)(N(C)c2cc(-c3cnc(N)nc3)nc(N3CCOC[C@@H]3C)n2)C1` [Example 16, 1-{(3R)-3-[{2′-amino-2-[(3S)-3-methylmorpholin-4-yl]-4,5′-bipyrimidin-6-yl}(methyl)amino]-3-methylpyrrolidin-1-yl}ethanone] gave a pKi of 9.07. Turning to `CC(=O)N1CC[C@@](C)(Nc2cc(-c3cnc(N)nc3)nc(N3CCOC[C@@H]3C)n2)C1` [Example 17, 1-[(3R)-3-({2′-amino-2-[(3S)-3-methylmorpholin-4-yl]-4,5′-bipyrimidin-6-yl}amino)-3-methylpyrrolidin-1-yl]ethanone], the pKi was 8.65.

In turn, `CC(=O)N1CC[C@](C)(N(C)c2cc(-c3cnc(N)nc3)nc(N3CCOC[C@@H]3C)n2)C1` [Example 20, 1-{(3S)-3-[{2′-amino-2-[(3S)-3-methylmorpholin-4-yl]-4,5′-bipyrimidin-6-yl}(methyl)amino]-3-methylpyrrolidin-1-yl}ethanone] gave a negative logarithm of the Ki (pKi) of 9.89. `CC(C)(C)OC(=O)N1CC[C@](CO)(Nc2cc(-c3cnc(N)nc3)nc(N3CCOCC3)n2)C1` [Example 24, tert-butyl (3S)-3-{[2′-amino-2-(morpholin-4-yl)-4,5′-bipyrimidin-6-yl]amino}-3-(hydroxymethyl)pyrrolidine-1-carboxylate] showed a negative-log Ki (pKi) of over 10.74.

For `CCOC(=O)N1CC[C@](CO)(Nc2cc(-c3cnc(N)nc3)nc(N3CCOCC3)n2)C1` [Example 45, ethyl (3S)-3-{[2′-amino-2-(morpholin-4-yl)-4,5′-bipyrimidin-6-yl]amino}-3-(hydroxymethyl)pyrrolidine-1-carboxylate], the pKi was 10.66.

`CC(=O)N1CC(CO)(Nc2cc(-c3cnc(N)nc3)nc(N3CCOC[C@@H]3C)n2)C1` [Example 53, 1-[3-({2′-amino-2-[(3S)-3-methylmorpholin-4-yl]-4,5′-bipyrimidin-6-yl}amino)-3-(hydroxymethyl)azetidin-1-yl]ethanone]: the pKi was 9.27. The compound `CC(C)(C)OC(=O)N1CCC(Nc2cc(-c3cnc(N)nc3)nc(N3CCOCC3)n2)(C(F)(F)F)C1` (centres unmarked) [Example 62, tert-butyl 3-{[2′-amino-2-(morpholin-4-yl)-4,5′-bipyrimidin-6-yl]amino}-3-(trifluoromethyl)pyrrolidine-1-carboxylate] showed a pKi of 9.80. The compound `CC(C)OC(=O)N1CC[C@](CO)(Nc2cc(-c3cnc(N)nc3)nc(N3CCOC[C@@H]3C)n2)C1` [Example 66, propan-2-yl (3S)-3-({2′-amino-2-[(3S)-3-methylmorpholin-4-yl]-4,5′-bipyrimidin-6-yl}amino)-3-(hydroxymethyl)pyrrolidine-1-carboxylate] had a negative-log Ki (pKi) of 10.59.

Regarding `CC(C)(F)C(=O)N1CC[C@](CO)(Nc2cc(-c3cnc(N)nc3)nc(N3CCOCC3)n2)C1` [Example 68, 1-[(3S)-3-{[2′-amino-2-(morpholin-4-yl)-4,5′-bipyrimidin-6-yl]amino}-3-(hydroxymethyl)pyrrolidin-1-yl]-2-fluoro-2-methylpropan-1-one], the pKi is 10.24. As to `Nc1ncc(-c2cc(N[C@@]3(CO)CCN(C(=O)[C@H]4C[C@@H]4F)C3)nc(N3CCOCC3)n2)cn1` [Example 74, [(3S)-3-{[2′-amino-2-(morpholin-4-yl)-4,5′-bipyrimidin-6-yl]amino}-3-(hydroxymethyl)pyrrolidin-1-yl][(1R,2S)-2-fluorocyclopropyl]methanone], the pKi is 9.82. `Nc1ncc(-c2cc(N[C@@]3(CO)CCN(C(=O)[C@H]4C[C@H]4F)C3)nc(N3CCOCC3)n2)cn1` [Example 75, [(3S)-3-{[2′-amino-2-(morpholin-4-yl)-4,5′-bipyrimidin-6-yl]amino}-3-(hydroxymethyl)pyrrolidin-1-yl][(1R,2R)-2-fluorocyclopropyl]methanone] had a pKi of 9.94.

In the case of `Nc1ncc(-c2nc(N[C@@]3(CO)CCN(C(=O)C4(F)CC4)C3)nc(N3CCOCC3)n2)cn1` [Example 91, [(3S)-3-{[4-(2-aminopyrimidin-5-yl)-6-(morpholin-4-yl)-1,3,5-triazin-2-yl]amino}-3-(hydroxymethyl)pyrrolidin-1-yl](1-fluorocyclopropyl)methanone], the pKi was 10.32. As for `C[C@H]1COCCN1c1nc(N[C@@]2(CO)CCN(C(=O)C3CC3)C2)cc(-c2cnc(N)nc2)n1` [Example 96, [(3S)-3-({2′-amino-2-[(3S)-3-methylmorpholin-4-yl]-4,5′-bipyrimidin-6-yl}amino)-3-(hydroxymethyl)pyrrolidin-1-yl](cyclopropyl)methanone], the figure is 10.47; as for `Nc1ncc(-c2cc(N[C@@]3(CO)CCN(CC(=O)N4CCC4)C3)nc(N3CCOCC3)n2)cn1` [Example 98, 2-[(3S)-3-{[2′-amino-2-(morpholin-4-yl)-4,5′-bipyrimidin-6-yl]amino}-3-(hydroxymethyl)pyrrolidin-1-yl]-1-(azetidin-1-yl)ethanone], 10.15. The result for `CC(C)(N)C(=O)N1CC[C@](C)(Nc2nc(N3CCOCC3)nc(-c3cnc(N)nc3)c2F)C1` [Example 109, 2-amino-1-[(3S)-3-{[2′-amino-5-fluoro-2-(morpholin-4-yl)-4,5′-bipyrimidin-6-yl]amino}-3-methylpyrrolidin-1-yl]-2-methylpropan-1-one] reads 10.03; that for `Nc1ncc(-c2nc(N3CCOCC3)nc(N[C@@]3(CO)CCN(C(=O)NCC(F)(F)F)C3)c2F)cn1` [Example 135, (3S)-3-{[2′-amino-5-fluoro-2-(morpholin-4-yl)-4,5′-bipyrimidin-6-yl]amino}-3-(hydroxymethyl)-N-(2,2,2-trifluoroethyl)pyrrolidine-1-carboxamide], 9.33; that for `CC(C)(C)OC(=O)N1CCC[C@@](CO)(Nc2nc(N3CCOCC3)nc(-c3cnc(N)nc3)c2F)C1` [Example 142, tert-butyl (3R)-3-{[2′-amino-5-fluoro-2-(morpholin-4-yl)-4,5′-bipyrimidin-6-yl]amino}-3-(hydroxymethyl)piperidine-1-carboxylate], 8.14.
